The results in this text go back to article PMC7994190.

This experiment concerns the target Recombinant mouse VDAC1 (mouse) (UniProt Q60932).

Consider “Recombinant WT α-synuclein (from UniProt P37840 1-140) (natural protein)”, for which the reversal potential of the αSyn-blocked state, 30/150 mM CaCl2 (cis/trans) was found to be 8.9 mV; the reversal potential of the αSyn-blocked state, 100/500 mM CaCl2 (cis/trans) is -27 mV; the reversal potential of the αSyn-blocked state, 150/30 mM CaCl2 (cis/trans) was -5.5 mV; the reversal potential of the αSyn-blocked state, 300/60 mM KCl (cis/trans) is -17.7 mV. Further, the reversal potential of the αSyn-blocked state, 500/100 mM CaCl2 (cis/trans) stood at 24.8 mV.
